Source: patent publication US9265816B2, “Immunogenic WT-1 peptides and methods of use thereof” (priority 2006, dated 2016)

Tests used:
[1] = tested on: MeWo (WT1- melanoma cell line); assay: Chromium 51 cytotoxicity assay; type: cell-based; settings: human T cells stimulated 2 times with the peptide
Method: (§1) FIG. 9, left panel. […] CD8^+ T cells were incubated with radiolabeled target cells (pulsed or unpulsed 697 (A0201^+, WT1^+) or SKLY16 (A0201+, WT1-) at 3 different E:T ratios: Grey bars 100:1; Black bars 30:1; White bars 10:1. Y axis: percentage of cytotoxicity. X axis: target cell conditions. *-p<0.05 compared to SKLY16 controls at the same E:T ratio. Right panel: CD8+ T cells isolated as described for the left panel were incubated with radiolabeled JMN (solid line A0201+ WT1+) or MeWo (dashed line A0201+, WT1-) target cells at 4 different E:T ratios: Y axis: percentage of cytotoxicity. X axis: E:T ratios. P was <0.001 compared to MeWo controls. The presence of specific CTL was measured in a standard 4 h-chromium release assay. Target cells were pulsed with 10 microgram (mcg)/ml of synthetic peptides overnight at 37° C. and labeled with 300 μCi of Na2^51CrO4 (NEN Life Science Products, Inc., Boston, Mass.). After extensive washing, target cells were incubated with T cells at an E:T ratio ranging from 100:1 to 10:1. […] Supernatant fluids were harvested and radioactivity was measured in a gamma counter. Percent specific lysis was determined from the following formula: 100×[(experimental release minus spontaneous release)/(maximum release minus spontaneous release)]. Maximum release was determined by lysis of radiolabeled targets in 2.5% Triton X-100.

[2] = tested on: JMN (WT1+ mesothelioma cell line); type: cell-based; settings: human T cells stimulated 2 times with the peptide
Method: as §1

CD3+ T cells = assay: Cross-priming: T cells stimulated with DCs incubated with tumor lysates, IFN-gamma ELISPOT against peptide-pulsed DCs; type: cell-based, human
Method: A CD3^+ in vitro stimulation was performed as described above. 2×10^6 immature DCs were incubated with total cellular lysate from 2×10^6 tumor cells that was previously prepared by 3 freeze/thaw cycles. Following an 18 hour incubation, maturation cytokines were added to the DCs as described above. CD3^+ cells were stimulated 3 times with these autologous mature DCs, after which T cells were tested in an MN-gamma ELISPOT assay for reactivity against autologous, mature DCs that had been pulsed with individual CD4^+ peptides when in the immature state. These DCs were exposed to peptide again during the ELISPOT assay as described above.
Cross-priming studies were performed to determine whether WT1-expressing cells process and present peptides of the present invention and/or the corresponding native peptides. Total tumor lysates were prepared from 3 different cell lines: 697 (WT1^+, HLA A0201^+), an e1a2 leukemia cell line; JMN (WT1^+, HLA A0201^+) a biphasic mesothelioma cell line, and as a control, MeWo (WT1^−, HLA A0201^+), a malignant melanoma cell line. DCs from healthy A0201^+ donors were incubated for 18 hours with the tumor lysates and used to stimulate autologous CD3^+ T cells. Following 3 stimulations, the T cells were tested for their reactivity to autologous DCs pulsed with the WT1 peptides. […]

RMFPNAPYL (listed as Homo sapiens) [WT1 A (native)]
lysis of MeWo [1]: 9.2%
lysis of JMN [2]: 19%
recognition by T cells stimulated with DCs pulsed with 697 tumor lysate (CD3+ T cells): recognized
